Test results from ChEMBL document CHEMBL1157424, “Alisiaquinones and alisiaquinol, dual inhibitors of Plasmodium falciparum enzyme targets from a New Caledonian deep water sponge” (J Nat Prod, 2008).

Species on record: Rattus norvegicus
Assay: Inhibition of rat PFTase

## C[C@@]12CCC[C@]3(C)c4cc5c(cc4C(=O)[C@](O)(OC1)[C@H]23)C(=O)C=CC5=O [ALISIAQUINONE A]
  Ratio IC50: 2.8
